## Ab-14 light chain CDR variants: yeast mating affinities

Data: MIT Lincoln Laboratory AlphaSeq set, Engelhart et al. 2022, doi:10.1038/s41597-022-01779-4, as distributed in FLAb.

The target is the same throughout: PDVDLGDISGINAS, from the HR2 region of SARS-CoV-2 spike.

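The parent was found by panning a naive human phage display library on the peptide. The library (AAYL50) carries one to three amino acid substitutions per variant, with no insertions or deletions. AlphaSeq pools MATa yeast showing the antibodies with MATalpha yeast showing the peptide. Binding brings cells together so that they mate, and sequencing counts the barcode pairs among the diploids. Scores were corrected for input abundance and mapped to Kd with protein pairs of known affinity run in the same pool. Mating was done three times.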

Each scFv is VH, the linker GGGGSGGGGSGGGGS, VL, as in the parent Ab-14, and differs from it in the CDRs of the light chain only.
VH: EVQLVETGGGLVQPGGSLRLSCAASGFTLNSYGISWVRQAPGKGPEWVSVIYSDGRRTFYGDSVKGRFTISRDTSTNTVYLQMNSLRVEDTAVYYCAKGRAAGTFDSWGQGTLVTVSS
VL: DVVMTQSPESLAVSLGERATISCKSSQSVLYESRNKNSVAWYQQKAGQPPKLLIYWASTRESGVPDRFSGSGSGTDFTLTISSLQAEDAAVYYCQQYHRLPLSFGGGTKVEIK

Variants are written as CDR1, CDR2 and CDR3 of the light chain (limits as in the source). Parent: KSSQSVLYESRNKNSVA, WASTRES, QQYHRLPLS.
Kd is apparent (estimated from mating counts) and averaged on the log scale over replicates with a signal. Smaller is tighter.
A pair that was not seen in any replicate is written "nd"; this usually means weak binding, but a binder can also be missed.
Order: sorted from the lowest average up, undetected variants last.
Parent in this assay: reference entry 4.4 nM, copy in this library 48 nM.

CDR-L1 | CDR-L2 | CDR-L3 | Kd | replicates with signal
KSSQSVLYESSNKNSVA | WASERES | QQYSRLPLS | 1.8 nM | 3/3
VSSQSVLYESRNKNSVA | HASTRES | QQYHRLPLS | 1.9 nM | 3/3
KSSQSQLYESRNLNSVA | WASTRES | QQYFRLPLS | 3.3 nM | 3/3
KSSQDVLYESRNKNSVA | WASTRES | QQYHRTPLS | 3.8 nM | 3/3
KSVQSVLYESDNKNSVA | WASTRES | QQDHRLPLS | 4.1 nM | 3/3
KSSQSAPYESRNKNSVA | WASTREI | QQYHRLPLS | 4.2 nM | 3/3
KSSQSVLYESRNVKSVA | WASTRES | QQYHRLPLS | 8.5 nM | 3/3
KKSQSGLYESRNDNSVA | WASTRES | QQYHRLPLS | 12 nM | 3/3
KSSQSVDYESRNMKSVA | WASTRES | QQYHRLPLS | 12 nM | 3/3
KSSQSVLYESRNWNSVA | WASTRES | QQYHRLPGS | 15 nM | 3/3
KCSQSVSYESRNKNSVA | WMSTRES | QQYHRLPLS | 24 nM | 3/3
KSSQGVLYESRNKNSVA | WDSLRES | QQYHRLPLS | 34 nM | 3/3
KSSISVLYESRNKPSVA | WASTRES | QQYHRLPLS | 47 nM | 3/3
KSSFSVLYESRNKNSVA | WASTRES | QQYMRLPLS | 53 nM | 3/3
KSSGSVLYESREKNSVA | WASTRES | EQYHRLPLS | 62 nM | 3/3
KSSQSVLYENRWKNSVA | WASTRES | QQYHRLPLS | 100 nM | 3/3
KSSQSMLYESRNKNWVA | WASTREE | QQYHRLPLS | 180 nM | 3/3
KQSQSVLYESRNKNSVA | WASTREC | KQYHRLPLS | 260 nM | 3/3
KSSQGVLYESRNKNSVA | WASTRES | QQQHRLPNS | 280 nM | 3/3
KSSQSVLYESRNKNSVA | WASVRES | TQYHRNPLS | 310 nM | 3/3
WSSQSVLMESRNKNSVA | WASTRES | QQYHSLPLS | 330 nM | 3/3
KSSQSVLYESRNKNSVA | WAKTRES | QNYHDLPLS | 510 nM | 3/3
KSSQPVLYESRNKNSVA | WASTRES | QQYDGLPLS | 530 nM | 3/3
KSSQSVLYESDNKNSVA | WASTRPS | QQYHRLELS | 580 nM | 3/3
KSCQSVLYESRNKVSVA | WASTRES | QQYHALPLS | 780 nM | 1/3
KSSQHVLYMSRVKNSVA | WASTRES | QQYHRLPLS | 980 nM | 1/3
KSSQSVLYESRNKNSVA | WASTRES | QQGHRLPWS | 1.0 µM | 2/3
KSSQSPLCESRIKNSVA | WASTRES | QQYHRLPLS | 1.1 µM | 3/3
KSSQSVLYESPNKNSVA | WAATRES | QFYHRLPLS | 2.2 µM | 3/3
KNSQSVLYESRNKNSVG | WASTTES | QQYHRLPLS | 3.9 µM | 1/3
KSSQSVLYEHRNKNSVA | CASTRES | IQYHRLPLS | 7.2 µM | 1/3
KSSQSVLYESRNKNSVA | EASTRES | NQYHRLPLN | 9.0 µM | 1/3

Further variants, results first:

Kd | replicates with signal | CDR-L1 | CDR-L2 | CDR-L3
11 µM | 3/3 | KSSQEVLYEERNKNSVA | WASTLES | QQYHRLPLS
19 µM | 1/3 | KSYQSWLYESRNKNMVA | WASTRES | QQYHRLPLS
31 µM | 3/3 | KSSQLVLYESRNKNSVL | WASTRES | QQCHRLPLS
32 µM | 1/3 | KSSQSPLYESRNKNWVA | WASTRES | PQYHRLPLS
49 µM | 2/3 | KKSQSVLYESRNKNCQA | WASTRES | QQYHRLPLS
60 µM | 1/3 | KSSQSVLYESRNKNQVA | WQSTRES | QQYHLLPLS
67 µM | 2/3 | KSSQSVLYESRNKNSYA | WASTRFS | QQYHRLMLS
75 µM | 1/3 | KSSQSVLYESRNKNSVA | VASSRES | LQYHRLPLS
170 µM | 1/3 | KFSQSVLYESRNKNYVG | WASTRES | QQYHRLPLS
180 µM | 1/3 | KSSQSVLYESRNKNSVA | WHTTRES | QQYHRLPQS
nd | 0/3 | KSSQSVLYESRNKNSVK | WASTYES | QQCHRLPLS
nd | 0/3 | KSSQSVLYESRNKTSVA | WASTRES | QQEHRLPLC
nd | 0/3 | KSSQSVLYESRNKNSVA | WASTRES | WQYHRLTQS
nd | 0/3 | KSSQSVLYESRNKNSCA | WASTRES | DQYHRLTLS
nd | 0/3 | KSSQSALYESRNKMSVA | WASTRES | VQYHRLPLS
nd | 0/3 | KPSTSVLYESRGKNSVA | WASTRES | QQYHRLPLS
nd | 0/3 | KSSLSVLYEKRNRNSVA | WASTRES | QQYHRLPLS
nd | 0/3 | KSSQSVLYEDRNNNSVA | WASTRES | QQYHRLTLS
nd | 0/3 | KSSQIVLYESRNKNFVA | WASTRES | QQYHRLPFS
nd | 0/3 | KSSQSVLYESRNKNSVG | WASTHES | QQYHRLPLS
nd | 0/3 | KSSQSVLYCSRNKNSVA | WASNRES | QQYHRLWLS
nd | 0/3 | KSSQSVLVESRNKNFVG | WASTRES | QQYHRLPLS
nd | 0/3 | KSSQRVLYESRNKVSVA | WASTRES | QQYHRLELS
nd | 0/3 | KSSQSVLYASRNKNSVA | WASTHES | QQYHRLPLG
nd | 0/3 | KSSQSVLYLSRNKNMVA | WASTRES | DQYHRLPLS
nd | 0/3 | KSSQSVLYESRNKNSVA | WASTEES | MQYHRIPLS
nd | 0/3 | KSSNSVLYESRNKNSKA | WASTRRS | QQYHRLPLS
nd | 0/3 | VSSQSVLYESRNKNSVA | WASTRES | QQMHRLPLS
nd | 0/3 | KSSQSVLYESRNKNSVA | WFSTREI | QQYHRLNLS
nd | 0/3 | KSSQSVLYESRNKESVA | WASTRES | MQYHRLVLS
nd | 0/3 | KSSQSVLYEVRNPNSVA | WASTRKS | QQYHRLPLS
nd | 0/3 | KSSQLVLYESRNKNSVA | WASTRES | QQYHNPPLS
nd | 0/3 | KSSQSVLYESRNKNSVA | WAMTRES | FQYHRLPLH

The opening 9 entries, copied out:

CDR-L1	CDR-L2	CDR-L3	Kd	replicates with signal
KSSQSVLYESSNKNSVA	WASERES	QQYSRLPLS	1.8 nM	3/3
VSSQSVLYESRNKNSVA	HASTRES	QQYHRLPLS	1.9 nM	3/3
KSSQSQLYESRNLNSVA	WASTRES	QQYFRLPLS	3.3 nM	3/3
KSSQDVLYESRNKNSVA	WASTRES	QQYHRTPLS	3.8 nM	3/3
KSVQSVLYESDNKNSVA	WASTRES	QQDHRLPLS	4.1 nM	3/3
KSSQSAPYESRNKNSVA	WASTREI	QQYHRLPLS	4.2 nM	3/3
KSSQSVLYESRNVKSVA	WASTRES	QQYHRLPLS	8.5 nM	3/3
KKSQSGLYESRNDNSVA	WASTRES	QQYHRLPLS	12 nM	3/3
KSSQSVDYESRNMKSVA	WASTRES	QQYHRLPLS	12 nM	3/3

Three control strains display no target. For library AAYL50, 18% of the pairings with them gave a signal, with a median of 15 µM and one signal in twenty below 970 nM, so weak values seen in few replicates may be background.